Source: ChEMBL document CHEMBL5346872, “Design, synthesis and biological evaluation of quercetin derivatives as novel β-catenin/B-cell lymphoma 9 protein-protein interaction inhibitors” (Eur J Med Chem, 2023)

Protein sequences, listed by entry. Tags and fused reporters are not part of them.
UniProt P35222, whole entry: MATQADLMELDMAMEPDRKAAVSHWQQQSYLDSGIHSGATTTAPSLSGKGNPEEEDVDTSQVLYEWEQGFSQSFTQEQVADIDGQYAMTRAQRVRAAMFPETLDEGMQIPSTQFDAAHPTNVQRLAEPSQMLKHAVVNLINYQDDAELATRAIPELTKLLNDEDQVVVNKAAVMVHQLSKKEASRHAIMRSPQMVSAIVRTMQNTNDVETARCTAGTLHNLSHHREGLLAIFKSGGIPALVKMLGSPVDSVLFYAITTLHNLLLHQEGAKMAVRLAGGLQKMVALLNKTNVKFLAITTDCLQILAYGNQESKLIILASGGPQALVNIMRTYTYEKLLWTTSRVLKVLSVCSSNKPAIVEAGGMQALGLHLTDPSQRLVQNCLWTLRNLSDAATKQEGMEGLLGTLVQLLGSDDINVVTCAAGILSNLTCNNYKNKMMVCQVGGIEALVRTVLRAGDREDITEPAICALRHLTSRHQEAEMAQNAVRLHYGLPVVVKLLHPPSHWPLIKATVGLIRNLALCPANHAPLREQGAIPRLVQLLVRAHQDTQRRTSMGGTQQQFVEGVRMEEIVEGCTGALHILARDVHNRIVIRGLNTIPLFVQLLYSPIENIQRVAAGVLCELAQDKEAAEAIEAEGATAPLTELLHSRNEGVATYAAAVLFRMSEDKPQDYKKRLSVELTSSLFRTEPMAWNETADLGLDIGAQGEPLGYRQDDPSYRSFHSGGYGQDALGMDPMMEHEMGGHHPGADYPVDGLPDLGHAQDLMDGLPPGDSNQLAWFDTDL

Columns and labels:
[1] = target: T1, beta-catenin-B-cell lymphoma 9 protein complex (Homo sapiens, UniProt P35222)
[2] = target: T1, beta-catenin-B-cell lymphoma 9 protein complex; assay: Inhibition of beta-catenin (unknown origin) to BCL9-FAM (unknown origin) protein-protein interaction preincubated for 2 hrs followed by BCL9 addition and measured after 2 hrs by fluorescence polarization assay; format: protein-complex assay

Structure (SMILES): O=c1c(O)c(-c2ccc(O)c(O)c2)oc2cc(O)cc(O)c12 [QUERCETIN]
- IC50 [1]: 10.1 µM
- IC50 [2]: 10.1 µM
